# Biological target: T1, Uncharacterized protein (Cryptosporidium parvum, UniProt A0A7S7LIM2)
# T1 sequence (A0A7S7LIM2 whole entry): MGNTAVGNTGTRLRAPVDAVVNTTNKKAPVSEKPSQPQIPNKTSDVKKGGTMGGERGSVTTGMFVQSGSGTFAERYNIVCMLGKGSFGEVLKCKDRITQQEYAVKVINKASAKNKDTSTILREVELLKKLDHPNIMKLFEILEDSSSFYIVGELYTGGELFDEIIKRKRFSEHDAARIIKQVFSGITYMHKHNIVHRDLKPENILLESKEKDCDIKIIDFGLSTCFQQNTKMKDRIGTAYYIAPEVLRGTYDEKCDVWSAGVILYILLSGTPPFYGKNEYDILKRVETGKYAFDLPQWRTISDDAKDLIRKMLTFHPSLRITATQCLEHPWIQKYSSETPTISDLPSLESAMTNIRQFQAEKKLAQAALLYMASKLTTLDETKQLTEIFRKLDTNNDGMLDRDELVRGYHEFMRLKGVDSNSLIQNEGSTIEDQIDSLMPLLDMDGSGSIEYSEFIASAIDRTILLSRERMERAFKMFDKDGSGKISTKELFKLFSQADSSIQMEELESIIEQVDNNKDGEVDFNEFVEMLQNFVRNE
# Experiment: Luminescent Kinase Assay
smiles,measurement,value
"CC(C)(C)n1cc(C(N)=O)c(-c2ccc3c(N)n[nH]c3c2)n1 [US9518026, Example 28]",IC50,420 nM
